{"source": "paper PMC3608422", "about": "(Xenobiotica; the fate of foreign compounds in biological …, 2011)", "target": "mCB1Rs (Mus musculus, UniProt P47746)", "assay_type": "biochemical"}
{"substance": "(−)-cis-3-[2-Hydroxy-4-(1,1-dimethylheptyl)phenyl]-trans-4-(3-hydroxypropyl)cyclohexanol [CP-55,940, reference compound]", "values": [{"measurement": "maximal response (G-protein activation)", "setting": "CP-55,940 alone", "value": "0.34 ± 0.03", "unit": "pmol/mg protein"}, {"measurement": "ED50 required to activate G-proteins", "setting": "CP-55,940 alone, mouse brain membranes", "value": 4.3, "unit": "nM"}, {"measurement": "effect on G-protein activity ([35S]GTPγS binding)", "setting": "mouse brain membranes, 1 µM", "value": "stimulates"}]}
